US5883243A, “Non-reducing saccharides, their preparations and uses” (Kabushiki Kaisha Hayashibara Seibutsu Kagaku Kenkyujo, priority 1997, dated 1999)

Test system: crude glucosyltransferase specimen derived from Streptococcus sobrinus strain (ATCC 27351)
Assay: Inhibition of insoluble glucan formation by glucosyltransferase from dental caries-inducing microorganism
Format: biochemical
Details: sucrose plus test saccharide (one ml of one w/v % each), pH 6.8, 37° C., 16 hours
Procedure: To a mixture solution consisting of one ml of one w/v % sucrose solution, one ml of one w/v % of a test saccharide solution, and 1.5 ml of 0.1M phosphate buffer (pH 6.8) was added 0.5 ml solution containing a crude glucosyltransferase specimen in a total protein content of 10 mg, and the mixture solution was placed in a small test tube which was then fixed and slanted to give a grade 30 degrees and allowed to react at 37° C. for 16 hours. The reaction mixture was transferred gently to another test tube and mixed with a solution obtained by washing carefully with 4 ml water the remaining substances adhered to the inner walls of the small test tube, and the mixture solution was centrifuged to obtain a precipitate as a non-adsorbed glucan. The amounts of the adsorbed- and non-adsorbed glucans thus obtained were respectively quantified by the anthrone-sulfuric acid method, and the total amount of them was regarded as the amount of the formed insoluble glucans. As a control system, a reaction system using water in place of the test saccharide solution, i.e. a reaction system using sucrose as a saccharide, was provided. […]

OC[C@H]1O[C@H](OC[C@H]2OC(O)[C@H](O)[C@@H](O)[C@@H]2O)[C@H](O)[C@@H](O)[C@@H]1O (some centres unmarked) [Isomaltose, isomaltose, reference compound]
Yield of non-adsorbed glucans (sucrose alone 923): 305 µg/mL | Yield of adsorbed glucans (sucrose alone 1,160): 67 µg/mL
